# In patent US7790738B2, “Methods of treating and preventing AIDS using of COX-2 inhibitors” (Lauras AS, priority 2000, dated 2010):
# The chains behind the UniProt entries cited, without tags or fusion partners. Residues count along the entry.
# UniProt P23219, 24-599: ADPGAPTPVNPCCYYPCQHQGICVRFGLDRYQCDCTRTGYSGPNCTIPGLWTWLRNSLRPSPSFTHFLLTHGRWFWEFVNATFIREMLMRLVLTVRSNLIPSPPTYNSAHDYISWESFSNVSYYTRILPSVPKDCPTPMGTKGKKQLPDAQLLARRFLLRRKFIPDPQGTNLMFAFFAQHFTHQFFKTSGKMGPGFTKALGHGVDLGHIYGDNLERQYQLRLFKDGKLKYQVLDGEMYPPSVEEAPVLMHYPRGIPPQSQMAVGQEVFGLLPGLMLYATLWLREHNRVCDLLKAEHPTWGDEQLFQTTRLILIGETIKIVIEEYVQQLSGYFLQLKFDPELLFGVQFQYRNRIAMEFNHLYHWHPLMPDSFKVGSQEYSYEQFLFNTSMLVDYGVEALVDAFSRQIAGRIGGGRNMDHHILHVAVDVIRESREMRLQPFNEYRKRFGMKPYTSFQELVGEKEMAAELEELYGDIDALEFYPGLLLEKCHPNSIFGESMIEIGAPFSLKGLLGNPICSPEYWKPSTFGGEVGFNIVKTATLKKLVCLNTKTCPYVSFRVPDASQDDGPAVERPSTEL
# What was measured:
# [1] = molecular target: T1, COX-1 (Homo sapiens, UniProt P23219); conditions: cited from earlier work
# [2] = system: lymph node mononuclear cells from MAIDS and control mice; experiment: anti-CD3 induced T cell proliferation in mixed unsorted lymph node cells, compound added in vitro; conditions: Mus musculus, read-out: concentration producing half-maximal effect (ED50) on T cell proliferation
# [3] = molecular target: T1, COX-1
# [4] = read-out: COX-1 IC50; recombinant human PGH synthesis; Laneuvill et al. 1994; cited from earlier work
smiles,measurement,setting,value
CS(=O)(=O)c1ccc(C2=C(c3ccccc3)C(=O)OC2)cc1 [rofecoxib],COX-1 inhibition,[1],inhibited only at micromolar concentrations
same,EC50,[2],~10 nM
CC(C(=O)O)c1ccc(-c2ccccc2)c(F)c1 (centres unmarked) [Flubiprofen],IC50,[3]; [4],0.5 µM
CN1C(C(=O)Nc2ccccn2)=C(O)c2ccccc2S1(=O)=O [Piroxicam],IC50,[3]; [4],17.7 µM
CCCCC1C(=O)N(c2ccccc2)N(c2ccccc2)C1=O [Phenylbutazone],IC50,[3]; recombinant human PGH synthesis; Laneuvill et al. 1994; read-out: COX-1 IC50; cited from earlier work,16 µM

# Like-named read-outs stand apart in the source and are kept apart here.
